Experiment: Solubility in water of potassium or sodium salts of AKBA
Type: physicochemical
Settings: volume of water needed to completely dissolve 1.0 g; room temperature (RT)
Procedure: These potassium or sodium salts of AKBA were evaluated for their solubility in water and determined their pH.

Row | Substance | Solubility of 1.0 g of product in water [mL]
1 | potassium salt or complex or chelate of 3-O-acetyl-11-keto-β-boswellic acid [LN05] | 140
2 | sodium salt of 3-O-acetyl-11-keto-β-boswellic acid [LN08] | 50

Source: patent US12576060B2, “Water soluble 3-O-acetyl-11-keto-β-boswellic acid and metal ion compositions, process for their preparation and uses thereof” (LAILA NUTRA PRIVATE LIMITED, priority 2020, dated 2026)
